Assay results: US20130045484A1, “METHODS AND KITS FOR DETERMINING THE TOXICITY OF AN AGENT” (priority 2010, published 2013)

Tests used:
[1] = system: caspase-3; assay: Caspase-3 (apoptosis) Assay; type: cell-based, human; settings: mean Caspase-3 response (405 nm) ÷ mean ATP response × 10^8; HEK 293; mannitol 1 mg/ml, doxorubicin 1 μg/ml, MMS 50 μg/ml, phenformin 250 μg/ml
Method: The assay was carried out using the same cell containing sample(s) as the p53R2 Renilla Luciferase Reporter Gene, the Firefly Luciferase Bioluminescent ATP and the superoxide assays. Once again, all of the assays were performed in 96-well cluster plates. Activation of caspase-3 plays a central role in the execution-phase of apoptosis. Thus, the caspase-3 assay will provide useful information on the mechanism of cellular toxicity. Following SOD measurement, caspase-3 was measured on each cellular sample in accordance with the Caspase-3 Assay Kit manufacturer's instructions. Briefly, the colorimetric assay is based on the hydrolysis of the peptide substrate acetyl-Asp-Glu-Val-Asp p-nitroanilide (Ac-DEVD-pNA) by caspase-3, resulting in the release of the p-nitroaniline (pNA) moiety which can be measured at 405 nm.
For the assay, cellular sample lysates (5 μl) were added to a reaction mixture containing caspase-3 substrate (Ac-DEVD-pNA, 95 μl) and samples were incubated for 2 h at 37° C. Absorbance was measured at 405 nm using a 96-well microtitre plate reader.

[2] = system: p53R2 (RE); assay: p53R2 Renilla Luciferase Reporter Gene Assay; settings: mean Renilla RLU ÷ mean ATP response × 10^2, HEK 293, p53R2 (RE) pGL4.70 MinP [hRLuc], mannitol 1 mg/ml, doxorubicin 1 μg/ml, MMS 50 μg/ml, phenformin 250 μg/ml, hydrochloride
Method: Constructs were transiently transfected into human HEK 293 cells using a lipid-based commercially available reagent (FuGENE HD Transfection Reagent, Roche Applied Science). Transfections were carried out following the manufacturer's instructions. Briefly, freshly passaged cells (20,000/well) were dispensed into Greiner Bio-One tissue-culture treated μ-clear (clear base), white, sterile, 96-well cluster plates and incubated overnight (37° C., 95% humidity, 5% CO2) in antibiotic-free media. Cells were transfected (100 ng DNA/well; 5 μl transfection complex/well) with pGL4.70 [hRLuc], p53R2 (RE) pGL4.70 [hRLuc], pGL4.70 MinP [hRLuc], or p53R2 (RE) pGL4.70 MinP [hRLuc] for 24 h, in antibiotic-free media. Several FuGENE HD Transfection Reagent: DNA ratios (3:2-8:2 in the final complex) were evaluated in order to determine the optimal level of transient transfection.
Renilla luciferase activity was measured using the ViviRen Luciferase Live Cell Substrate following the Manufacturer's instructions. […] Microtitre plates were incubated for two minutes at room temperature before measuring luminescence on a Tecan Ultra (Tecan Corporation) in luminescence mode, integrating for 100 ms. Alternatively luminescence can be measured on a LEADseeker multi-modality instrument in luminescence mode (GE Healthcare).

[3] = system: HEK 293 cells; assay: Firefly Luciferase Bioluminescent ATP cell viability assay; type: cell-based, human; settings: phenformin 250 μg/ml, MMS 50 μg/ml, doxorubicin 1 μg/ml
Method: The assay was carried out in 96-well cluster plates on the same cell containing sample(s) as the p53R2 Renilla Luciferase Reporter Gene Assay. Traditionally bioluminescent ATP quantification methods use firefly luciferase to quantify ATP in the presence of inorganic magnesium ions and the substrate luciferin. The ATP assay described here uses a recombinant luciferase from a gene isolated from the Pennsylvania Firefly (Photuris pennsylvania). Following Renilla luciferase gene reporter activity quantification, firefly luciferase activity was measured in each well using the Cell-Titer Glo Luciferase ATP Quantification Assay Kit in accordance with the kit manufacturer's instructions. Briefly, the enzyme substrate was equilibrated to room temperature and reconstituted with the assay buffer. 100 μl of this reagent was added to cells which quenched the Renilla luciferase reaction and liberated the cellular contents by cellular lysis. […] It is based on the quantitative measurement of ATP which indicates the absolute number of metabolically active cells.

[4] = system: superoxide dismutase; assay: Superoxide Dismutase (SOD) (Oxidative Stress) Assay; type: cell-based, human; settings: mean superoxide dismutase response (450 nm) ÷ mean ATP response × 10^7; HEK 293; mannitol 1 mg/ml, doxorubicin 1 μg/ml, MMS 50 μg/ml, phenformin 250 μg/ml
Method: The assay was conducted using the same cell containing sample(s) as the p53R2 Renilla Luciferase Reporter Gene and the Firefly Luciferase Bioluminescent ATP assays. The assays were performed in 96-well cluster plates.
On completion of ATP quantification, SOD was measured on each cellular sample following the SOD assay kit manufacturer's instructions. Briefly, the assay method is based on a water-soluble tetrazolium salt, WST-1 (2-(4-Iodophenyl)-3-(4-nitrophenyl)-5-(2,4-disulfophenyl)-2H-tetrazolium, monosodium salt) that produces a colourimetric formazan dye upon reduction with a superoxide anion which can be measured spectrophotometrically. The rate of the reduction with the superoxide anion is linearly related to […] xanthine oxidase (XO) activity. Thus, cellular samples (20 μl) were added to a reaction mixture (220 μl) containing WST-1 and XO and incubated for 20 mins at 37° C. Absorbance was measured at 450 nm using a 96-well microtitre plate reader.

`[H]/N=C(/N)N/C(=N/[H])NCCc1ccccc1` [Phenformin, phenformin hydrochloride] was tested, and the “Mean Apoptotic Index” value [1] was 6.13, the “Mean Genotoxic Index” value [2] was 1.63 and the “Mean Genotoxic Index” value ([2]; listed as phenformin) was “low Genotoxic Index value”. For the same compound, the “ATP response (cytotoxicity)” value ([3]; FIG. 10e, 8:2 transfection) was “reduction in ATP response”, the “ATP response (cytotoxicity)” value ([3]; FIG. 11e, 7:2 transfection) was “reduction in ATP response” and the “Mean Stress Index” value [4] was 1.27.

Structures can show the parent of a compound that is named as a salt.
